Patent US20100184601A1, “Method and Means Relating to Multiple Herbicide Resistance in Plants” (University of Durham, priority 2007, published 2010)

Tests used:
[1] = test system: MHR black-grass plants; experiment: Phytotoxicity screen: compound pre-treatment of MHR black-grass followed by chlortoluron, scored for phytotoxic injury; format: in vivo, black-grass (Alopecurus myosuroides); settings: compound at 80 g a.i. ha^−1 on 14 day old MHR black-grass; chlortoluron 500 g a.i.ha^−1 48 h later; scored after 10 days
[2] = test system: AmGSTF1; experiment: Effect of inhibitors on activity of recombinant black-grass AmGSTF1-1; format: biochemical, black-grass (Alopecurus myosuroides); settings: 0.1 mM inhibitor; recombinant enzyme
[3] = test system: AmGSTL1; experiment: Effect of inhibitors on activity of recombinant black-grass AmGSTL (thiol transferase); format: biochemical, black-grass (Alopecurus myosuroides); settings: 0.1 mM inhibitor; recombinant enzyme
[4] = test system: MHR black-grass; experiment: Spray trial: effect of inhibitor pre-treatment on MHR (herbicide resistance) in black-grass; format: in vivo, black-grass (Alopecurus myosuroides)
[5] = test system: MHR Peldon plants; experiment: Flavonoid content of MHR Peldon plants after inhibitor treatment; settings: compared with WT

SMILES | Score (phytotoxic injury) [1] | inhibition of AmGSTF1 activity [2] | inhibition of AmGSTL1 activity [3] | effect on resistance to chlortoluron ([4]; applied 48 h prior to chlortoluron) | effect on resistance to fenoxaprop ethyl ([4]; applied 48 h prior to fenoxaprop ethyl) | flavonoid content in MHR Peldon plants [5]
Nc1c([N+](=O)[O-])cc([N+](=O)[O-])c2nsnc12 | + | – | – | – | – | –
O=[N+]([O-])c1ccc(Cl)c2nonc12 | – | totally inhibited | totally inhibited | reduced resistance | reduced resistance | reduced the flavonoid content in MHR Peldon plants to WT levels
Cc1ccc([N+](=O)[O-])c2no[n+]([O-])c12 | + | – | – | – | – | –
